The record followed here is patent US9545416B2, “Combination therapy using ribavirin as eIF4E inhibitor” (Universite de Montreal, priority 2011, dated 2017).

The chains behind the UniProt entries cited, without tags or fusion partners.
UniProt P06730, whole entry: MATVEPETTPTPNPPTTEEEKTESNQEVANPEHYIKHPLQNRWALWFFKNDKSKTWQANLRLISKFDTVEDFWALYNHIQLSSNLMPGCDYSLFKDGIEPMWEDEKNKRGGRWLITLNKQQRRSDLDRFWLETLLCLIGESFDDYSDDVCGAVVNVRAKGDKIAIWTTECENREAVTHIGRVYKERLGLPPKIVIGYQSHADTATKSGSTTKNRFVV

“And” between values parts separate entries of the source, which are not always exact repeats. Equal values may be shown once.

Series [1] deals with ENT1. The experiment in a line: ENT1 RNA levels in patients (RT-qPCR). The class given is in vivo, human. The conditions noted are these: Patient 11 (CR), after 9 cycles of treatment.
The subject of series [2] is F10R cells. The experiment in a line: Cell number / growth assay, F10R resistant cells. The class given is cell-based. The conditions noted are these: 10 μM ribavirin. On the procedure:
(FIG. 6). Gli-1 knockdown experiments were performed in parallel.

Series [3] has as its system Gli-1 mRNA. The experiment in a line: Gli-1 mRNA levels in patient specimens (qRT-PCR). The format is in vivo, human. The conditions noted are these: 6 responding patients with specimens at relapse. From the text:
Gli-1 mRNA levels were monitored in patients before, during, and after response in patients receiving ribavirin monotherapy. To date, the non-responding patients before treatment had over 20 fold elevated ribavirin levels. These levels were not reduced during ribavirin treatment, indeed for one case that there is available data, the Gli-1 levels nearly doubled. For responding patients, in all cases Gli-1 mRNA levels were higher at resistance than during response. In some cases, ribavirin levels started high in the before treatment sample and then were reduced (for instance, patient 17 had 20× Gli-mRNA before treatment, 5.8 during blast response and 26× at relapse), whereas in other cases, Gli-1 mRNA levels started low and then became elevated at relapse (for instance, patient 10 had 1.3× Gli-1 mRNA before treatment relative to normal, 1.6× during response and 3.6× at relapse).
The molecular features identified in present studies were examined to determine whether they were relevant to specimens from patients that received ribavirin monotherapy in the multi-centre phase II AML trial. For responding patients, all available specimens before treatment were monitored, during clinical response, upon the onset of relapse and in non-responders when possible. […] Gli-1 mRNA levels were monitored using qRT-PCR. […]

Series [4] concerns the target T1, eIF4E (Homo sapiens, UniProt P06730).
T1 construct: ^14C ribavirin is enriched in the eIF4E immunoprecipitated fraction by about 20 fold relative to the IgG control; endogenous in cells; host or cells: parental FaDu, F10R and F100R resistant cells
The series is described as follows: Immunoprecipitation of labelled (3H/14C) ribavirin with eIF4E in living cells. The format is binding. From the text:
NMR, fluorescence, and mass spectrometry studies indicate that ribavirin directly binds eIF4E. ^3H ribavirin binds to eIF4E in living cells as shown by the 14-fold enrichment of ^3H ribavirin in eIF4E immunoprecipitations relative to controls. […] Ribavirin sensitivity parallels eIF4E sensitivity and inhibits both the nuclear and cytoplasmic functions of eIF4E. Importantly, ribavirin affects primary AML specimens with elevated eIF4E more than specimens with normal eIF4E levels. In total, it appears that these AML specimens have developed an “oncogene addiction” to eIF4E making them more sensitive to inhibition of eIF4E than specimens with normal eIF4E levels. The clinical utility of ribavirin treatment in M4/M5 AML patients was investigated.
It was determined whether ^14C-ribavirin could immunoprecipitate with eIF4E in the F10R and F100R resistant cell lines. […]
It was hypothesized that glucuronidation of ribavirin impairs its association with eIF4E. The ability of eIF4E to immunopreciptate with ^14C-ribavirin in conditions that varied in Gli-1 and UGT activity was monitored to determine if reversion of resistance correlated with re-association of ribavirin with eIF4E. Cells were treated for 24 hours with ^14C-ribavirin followed by cross-linking and immunoprecipitation and evaluated relative to IgG controls.

Series [5] concerns relapsed/refractory M4/M5 AML. The conditions noted are these: monotherapy, all patients.
The test system of series [6] is ADK. The experiment in a line: ADK RNA levels in patients (RT-qPCR). The format is in vivo, human. The conditions noted are these: Patient 11 (CR), after 9 cycles of treatment.

With `NC(=O)c1ncn([C@@H]2O[C@H](CO)[C@@H](O)[C@H]2O)n1` [ribavirin, 1-[(2R,3R,4S,5R)-3,4-dihydroxy-5-(hydroxymethyl)oxolan-2-yl]-1H-1,2,4-triazole-3-carboxamide], in series [1], the “reduction in ENT1 RNA levels at relapse relative to during response” value is 20 fold and 15 fold. For the same molecule, the “growth relative to untreated F10R cells” value in series [2] is recorded as “did not effect growth”. Moreover, the “Gli-1 mRNA levels upon resistance relative to normal controls or levels during response” value in series [3] was “up to 26 fold”. Moreover, the “enrichment of 3H ribavirin in eIF4E immunoprecipitations relative to controls” value in series [4] (living cells) worked out at 14 fold. The “enrichment of 14C ribavirin in the eIF4E immunoprecipitated fraction relative to the IgG control” value in series [4] (parental cell lines) is listed as “about 20 fold”. The drug related toxicity result in series [5] is “No drug related toxicity was observed”. Besides, in series [6], the “reduction in ADK RNA levels at relapse relative to during response” value was determined as 5 fold.
